In paper PMC12154787, “Comprehensive Evaluation of the Effects of Hot Air Drying Temperature on the Chemical Composition, Flavor Characteristics and Biological Activity of Houttuynia cordata Thunb” (Foods, 2025):

Assay: Metabolite identification in rat serum by UPLC-LTQ-Orbitrap-MS2 after HCT extract; note: key: +: detected; —: undetected
Assay type: in vivo, SD rats
Conditions: 50H group (600 mg/kg BW 50 °C hot-air dried HCT extract)
Description: The chromatographic separation was performed on an ACQUITY UPLC BEH C18 column (2.1 × 100 mm, 1.7 μm) maintained at 25 °C. […] The mobile phase flow rate was maintained at 300 μL/min with a 2 μL injection volume.
Mass spectrometric detection was carried out using an LTQ-Orbitrap system equipped with a HESI-II source operating in both positive and negative ionization modes. Full scan MS data were acquired over m/z 50–2000 with mass resolution set to 30,000 (at m/z 400). For structural elucidation, data-dependent MS/MS scans were triggered using a normalized collision energy of 45 eV in the CID cell. The diode array detector was simultaneously monitored at 280 nm and 320 nm. All instrumental operations and data acquisition were controlled by Xcalibur v2.0 software (Thermo Scientific).
The animal study protocol was approved by the Animal Ethics Committee of Jiangxi University of Chinese Medicine (Approval No. TEMPOR20230112). A total of 24 female SD rats (200 ± 20 g) were obtained from the Laboratory Animal Center of Jiangxi University of Chinese Medicine (Nanchang, China). […] The identification and quantification of metabolites in rat samples were performed using analytical methodologies consistent with those employed in our previous investigations.

## O=C(O)CC(=O)O [M28, malonic acid]
  Metabolite detected in Serum, 50H: +
